Test results published in ChEMBL document CHEMBL5523761 (J Med Chem, 2024).

The chains behind the UniProt entries cited, without tags or fusion partners.
UniProt P34972, whole entry: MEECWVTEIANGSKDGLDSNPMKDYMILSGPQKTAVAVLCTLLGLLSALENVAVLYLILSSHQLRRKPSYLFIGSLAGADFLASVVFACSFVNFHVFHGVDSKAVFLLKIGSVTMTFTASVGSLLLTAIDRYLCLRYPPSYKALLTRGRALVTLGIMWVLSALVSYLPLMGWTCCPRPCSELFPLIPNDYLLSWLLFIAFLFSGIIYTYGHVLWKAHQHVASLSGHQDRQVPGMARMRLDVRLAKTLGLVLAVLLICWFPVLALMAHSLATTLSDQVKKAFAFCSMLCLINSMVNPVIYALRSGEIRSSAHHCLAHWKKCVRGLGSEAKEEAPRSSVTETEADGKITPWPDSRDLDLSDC
UniProt P08913, whole entry: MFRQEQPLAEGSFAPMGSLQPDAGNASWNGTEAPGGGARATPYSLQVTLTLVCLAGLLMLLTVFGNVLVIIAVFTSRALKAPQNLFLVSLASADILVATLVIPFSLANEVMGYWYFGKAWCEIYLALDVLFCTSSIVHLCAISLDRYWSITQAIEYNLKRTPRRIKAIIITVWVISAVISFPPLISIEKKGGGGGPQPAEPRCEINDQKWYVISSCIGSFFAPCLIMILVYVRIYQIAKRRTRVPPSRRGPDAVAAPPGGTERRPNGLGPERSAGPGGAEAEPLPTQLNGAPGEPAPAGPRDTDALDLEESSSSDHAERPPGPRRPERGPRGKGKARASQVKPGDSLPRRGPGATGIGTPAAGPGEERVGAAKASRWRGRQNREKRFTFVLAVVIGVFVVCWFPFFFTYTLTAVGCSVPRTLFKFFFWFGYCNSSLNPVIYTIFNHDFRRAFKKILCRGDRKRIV

Legend:
Cannabinoid receptor 2 [1] = target: T1, Cannabinoid receptor 2 (Homo sapiens, UniProt P34972)
Cannabinoid receptor 2 [2] = target: T1, Cannabinoid receptor 2; remark: listed apart in the source
[3] = target: Alpha-2A adrenergic receptor (Homo sapiens, UniProt P08913)

SMILES | Ki (Cannabinoid receptor 2 [1]) [µM] | EC50 (Cannabinoid receptor 2 [2]) [µM] | Ki [3] [µM]
C=C(C)[C@@H]1CCC(C)=C[C@H]1c1c(O)cc(CCCCC)cc1O [CANNABIDIOL] | 4.58 | 0.104 | –
CC(C)C[C@H]1C(=O)N2CCC[C@H]2[C@]2(O)O[C@](NC(=O)[C@@H]3C=C4c5cccc6[nH]c(Br)c(c56)C[C@H]4N(C)C3)(C(C)C)C(=O)N12 [BROMOCRIPTINE] | – | – | 0.026
